The text below walks through data of patent publication US6291683A, “N-arloxyethyl-alkylamines for the treatment of depression” (American Home Products Corp, priority 2000, dated 2001).

Protein sequences, listed by entry. Tags and fused reporters are not part of them.
UniProt P31652, whole entry: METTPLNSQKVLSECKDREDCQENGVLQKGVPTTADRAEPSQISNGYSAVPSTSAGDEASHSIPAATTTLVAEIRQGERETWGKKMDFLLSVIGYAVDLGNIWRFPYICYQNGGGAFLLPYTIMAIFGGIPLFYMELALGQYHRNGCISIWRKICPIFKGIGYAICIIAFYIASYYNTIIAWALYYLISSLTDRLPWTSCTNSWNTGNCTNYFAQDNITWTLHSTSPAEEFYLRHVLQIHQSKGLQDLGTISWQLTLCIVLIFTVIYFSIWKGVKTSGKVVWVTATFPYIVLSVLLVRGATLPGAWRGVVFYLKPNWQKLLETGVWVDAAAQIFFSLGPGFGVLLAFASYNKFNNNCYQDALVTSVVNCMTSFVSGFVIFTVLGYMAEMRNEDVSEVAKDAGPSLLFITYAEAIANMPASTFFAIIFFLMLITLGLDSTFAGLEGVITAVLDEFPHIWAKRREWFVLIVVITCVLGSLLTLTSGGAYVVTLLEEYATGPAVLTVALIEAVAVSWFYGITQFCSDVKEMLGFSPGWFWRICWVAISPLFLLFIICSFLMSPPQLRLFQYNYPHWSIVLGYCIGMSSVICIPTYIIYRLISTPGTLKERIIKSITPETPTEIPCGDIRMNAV

pKi: −log10 of the molar value.

For the assay, the target named is T1, serotonin transporter (Rattus norvegicus, UniProt P31652).
T1 construct: frontal cortical membranes prepared from male Sprague-Dawley rats; from tissue; host or cells: frontal cortex membranes, male Sprague-Dawley rats
The experiment in a line: affinity for the serotonin transporter ([3H]-paroxetine binding, rat frontal cortical membranes). Set-up: species or system rat (male Sprague-Dawley). The following applies: [3H]-paroxetine 0.1 nM, 60 min, 25° C; Ki converted from IC50 (Cheng and Prusoff); read-out: ST (Ki).

Regarding “[2-(5-Fluoro-1H-indol-3-yl)ethyl]-[2-(5-fluoro-2-methoxy-phenoxy)-ethyl]-amine [Example 4]”, the pKi is 7.55.
